Only a part is listed here, and it is no random draw. Calls of active or inactive are those of the source.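 The calls were made as follows: active = NADPH fluorescence slope more negative than the mean of all samples by about 3 SD, 99.7% confidence; inactive = the rest.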

Sequences of proteins named here, by UniProt entry; tags and fusion partners are left off. A change or cut given only in a name is not applied to a line headed by its entry.
UniProt P62483: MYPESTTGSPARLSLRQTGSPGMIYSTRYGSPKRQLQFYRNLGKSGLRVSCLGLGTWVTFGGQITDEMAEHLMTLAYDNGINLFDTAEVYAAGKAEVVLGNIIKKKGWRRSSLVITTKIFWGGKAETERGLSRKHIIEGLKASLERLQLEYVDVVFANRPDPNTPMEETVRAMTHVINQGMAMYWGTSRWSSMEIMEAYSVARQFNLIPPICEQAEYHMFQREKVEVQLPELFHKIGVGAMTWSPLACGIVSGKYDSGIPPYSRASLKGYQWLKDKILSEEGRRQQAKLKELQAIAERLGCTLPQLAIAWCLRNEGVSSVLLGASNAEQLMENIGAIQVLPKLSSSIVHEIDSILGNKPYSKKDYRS

The target of this assay is Voltage-gated potassium channel subunit beta-2 (Rattus norvegicus) (UniProt P62483). In words: enhancers of rat Kvbeta2 NADPH turnover – biochemical, NADPH fluorescence, primary screen (AID 623).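 Also: fluorescence intensity change per second fitted from 20 to 320 s.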 To be noted: Recombinant KvBeta, NADPH fluorescence decrease slope, 10 min; at 10 µM; active compounds read low.
With `O=P(Nc1nccs1)(c1ccccc1)c1ccccc1`, the NADPH fluorescence slope was inactive: -2.2e-05.
As to `Cc1cccc(OCC(=O)OC2CN3CCC2CC3)c1` (configuration not stated), the NADPH fluorescence slope was inactive: -0.000101.
As for `CCOP1(=S)c2c(C)nn(CCC#N)c2N=C(c2ccccc2F)N1C` (configuration not stated), the NADPH fluorescence slope was inactive: 1.2e-05.
As for `Cc1ccc(OCC(=O)OC2CN3CCC2CC3)cc1` (configuration not stated), the NADPH fluorescence slope was inactive: -1.2e-05.
Under `Cc1nn(-c2ccccc2)c2c1P(=O)(N1CCOCC1)N(C)C(c1ccccc1)=N2` (configuration not stated) stands inactive: 1.6e-05; under `COP1(=S)c2c(C)nn(CCC#N)c2N=C(c2ccc(F)cc2)N1C` (configuration not stated), inactive: -3e-05.
Take `O=C(COc1ccccc1)OC1CN2CCC1CC2` (configuration not stated): the NADPH fluorescence slope is inactive: -4.7e-05.

Source of the values: PubChem BioAssay AID623 (Vanderbilt High Throughput Screening Facility, 2007).
